# Literature values in PubChem BioAssay AID1811 (Shanghai Institute of Organic Chemistry, 2009).
# The list shows a part of the results. Active and inactive are the calls of the source. Unless stated, no cut-off for active and inactive is given here.
# System: ribonuclease a
# Experiment: PubChem AID 1811
# Conditions: PDB complex binding affinities from literature
smiles,measurement,value
O=c1ccn([C@H]2C[C@H](OP(=O)(O)O)[C@@H](CO)O2)c(=O)[nH]1,outcome,active
